Laboratory results taken from PubChem BioAssay AID624169 (The Scripps Research Institute Molecular Screening Center, 2012).
Only a part is listed here, and it is no random draw. Some salts and complexes are drawn in separate pieces, as the source files them; their charges need not balance. The source made the active and inactive calls.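 Rule for the calls: active = activation above a run cutoff, the mean activation of all tested compounds plus 3 SD (cut at about 14% in these data); inactive = the rest.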

Protein sequences, listed by entry. Tags and fused reporters are not part of them.
UniProt P35363, whole entry: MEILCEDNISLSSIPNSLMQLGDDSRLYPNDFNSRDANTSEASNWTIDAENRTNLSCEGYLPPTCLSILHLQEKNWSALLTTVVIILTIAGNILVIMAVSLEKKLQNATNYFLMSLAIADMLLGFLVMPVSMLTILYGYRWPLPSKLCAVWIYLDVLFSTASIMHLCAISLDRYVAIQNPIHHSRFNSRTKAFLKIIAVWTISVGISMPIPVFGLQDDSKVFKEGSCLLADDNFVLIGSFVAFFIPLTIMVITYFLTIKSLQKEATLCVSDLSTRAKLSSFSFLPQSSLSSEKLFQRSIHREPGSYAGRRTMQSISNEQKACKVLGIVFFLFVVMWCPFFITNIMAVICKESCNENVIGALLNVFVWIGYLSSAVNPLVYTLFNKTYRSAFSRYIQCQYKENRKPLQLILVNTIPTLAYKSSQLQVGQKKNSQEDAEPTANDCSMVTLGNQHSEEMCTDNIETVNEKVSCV

Each compound was assayed against 5-hydroxytryptamine receptor 2A (Mus musculus) (UniProt P35363) (assay: mouse Htr2a agonists via beta-arrestin recruitment, primary screen, cell-based, luminescence (AID 624169;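 note: 0% = plate median of compound wells and 100% = 30 µM serotonin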)). Settings: CHO-K1 mHTR2A beta-arrestin complementation, at 7.6 µM, hits give high values, percent of 30 µM serotonin response.

| SMILES | activation |
| --- | --- |
| O=[N+]([O-])c1cc([N+](=O)[O-])c(C(F)(F)F)c([N+](=O)[O-])c1O | inactive: 14.4% |
| Cc1ccccc1NP(C)(=O)Nc1ccccc1C | inactive: 3.58% |
| CP(=O)(Nc1ccc2c(c1)OCCO2)Oc1ccccc1 (centres undefined) | inactive: -1.27% |
| CCOP(C)(=S)SCC(=O)NC(C)(CC)C(=O)O (centres undefined) | inactive: 2.68% |
| CP(=O)(Nc1ccc(SC(F)(F)F)cc1)Oc1ccc(F)cc1 (centres undefined) | inactive: -3.15% |
| Cc1c(C(c2ccc3c(c2)OCO3)c2c(C)n(C)n(-c3ccccc3)c2=O)c(=O)n(-c2ccccc2)n1C.O=[N+]([O-])c1cc([N+](=O)[O-])c(O)c([N+](=O)[O-])c1 | inactive: 1.66% |
| Cc1cc(-c2cccc3ccccc23)c(C)cn1.O=[N+]([O-])c1cc([N+](=O)[O-])c(O)c([N+](=O)[O-])c1 | inactive: -0.55% |
| O=[N+]([O-])c1cc([N+](=O)[O-])c(NCC2CCS(=O)(=O)C2)c([N+](=O)[O-])c1 (centres undefined) | inactive: -1.8% |
| O=[N+]([O-])c1ccc(OP2(=O)COCCO2)cc1 (centres undefined) | inactive: -0.55% |
| COc1ccc(NP(C)(=O)Oc2ccccc2OC)cc1 (centres undefined) | inactive: 7.13% |
| CN(C)CCOC(=O)C(O)(c1ccccc1)C1CCCCC1 (centres undefined) | inactive: -4.53% |
| COc1ccc(OP(C)(=O)Nc2cccc(Br)c2)cc1 (centres undefined) | inactive: -1.08% |
| O=[N+]([O-])c1cc([N+](=O)[O-])c(OC2CCCCC2O)c([N+](=O)[O-])c1 (centres undefined) | inactive: 0.84% |
| CCCCCOc1ccc(NP(C)(=O)Oc2ccc(Cl)cc2Cl)cc1 (centres undefined) | inactive: -1.52% |
| CP(=O)(Nc1ccccc1)Oc1ccc(F)cc1 (centres undefined) | inactive: -1.12% |
| CCN(CC)CCCOC(=O)C(O)(c1ccccc1)C1CCCCC1 (centres undefined) | inactive: -9.23% |
| Cc1c([N+](=O)[O-])cc([N+](=O)[O-])c(Br)c1[N+](=O)[O-] | inactive: -4.45% |
| COc1ccc(OP(C)(=O)Nc2ccc(SC(F)(F)F)cc2)cc1 (centres undefined) | inactive: -7.78% |
| CCOC(=O)c1ccc(NP(C)(=O)Oc2ccc(F)cc2)cc1 (centres undefined) | inactive: 0.3% |
| CCN(CC)CCCNc1ccccc1[N+](=O)[O-].O=[N+]([O-])c1cc([N+](=O)[O-])c(O)c([N+](=O)[O-])c1 | inactive: -3.09% |
| COc1ccc2c(c1O)-c1c(O)c(OC)cc3c1[C@H](C2)[N+](C)(C)CC3.O=[N+]([O-])c1cc([N+](=O)[O-])c([O-])c([N+](=O)[O-])c1[O-] | inactive: 1.08% |
| O=C(OCCN1CCN(CCOCc2ccccc2)CC1)C(O)(c1ccccc1)c1ccccc1 | inactive: -2.86% |
| O=C(OC1CN2CCC1CC2)c1ccc([N+](=O)[O-])cc1 (centres undefined) | inactive: 4.23% |
| CC(C)c1ccc(OP(C)(=O)Nc2ccc(SC(F)(F)F)cc2)cc1 (centres undefined) | inactive: -4.41% |
| CP(=O)(Nc1ccccc1F)Oc1ccccc1 (centres undefined) | inactive: -2.61% |

| SMILES | activation |
| --- | --- |
| O=[N+]([O-])c1cc([N+](=O)[O-])c(Nc2ccc(Cl)cc2)c([N+](=O)[O-])c1 | inactive: -3.9% |
| CCc1ccc(OP(C)(=O)O)cc1 | inactive: 1.54% |
| CP(=O)(Nc1ccccn1)Oc1ccccc1 (centres undefined) | inactive: 4.11% |
| COc1ccccc1OP(C)(=O)Nc1ccc(C)cc1C (centres undefined) | inactive: -0.49% |
| O=[N+]([O-])c1cc([N+](=O)[O-])c(Nc2ccccn2)c([N+](=O)[O-])c1 | inactive: -5.85% |
| Cc1c(NP(C)(=O)Oc2ccc(C(C)C)cc2)c(=O)n(-c2ccccc2)n1C (centres undefined) | inactive: -0.28% |
| CN(C)CCOC(=O)C(O)(c1ccccc1)C1CCCC1 (centres undefined) | inactive: -1.01% |
| COc1ccc(OP(C)(=O)Nc2ccccn2)cc1 (centres undefined) | inactive: 1.65% |
| COc1ccccc1OP(C)(=O)Nc1ccc(Br)cc1 (centres undefined) | inactive: -1.62% |
| CP(=O)(OCCOc1ccccc1)OCCOc1ccccc1 | inactive: 0.42% |
| CP(=O)(Nc1ccc(Cl)cc1Cl)Oc1ccccc1 (centres undefined) | inactive: 2.24% |
| CCCCCCCCCCCCCCCC1C[N+](C)(C)CCOP(C)(=O)O1 (centres undefined) | inactive: 4.11% |
| COc1ccc(OP(C)(=O)Nc2ccccc2Br)cc1 (centres undefined) | inactive: -1.06% |
| COc1ccccc1OP(C)(=O)Nc1ccc(C)c(C)c1 (centres undefined) | inactive: -5.27% |
| O=C1C(O)=C([N+](=O)[O-])C(=O)C(O)=C1[N+](=O)[O-] | inactive: -3.82% |
| Cc1cc(C)cc(OP(C)(=O)Nc2cccc(C(F)(F)F)c2)c1 (centres undefined) | inactive: 2.11% |
| CP(=O)(OC12CC3CC(CC(C3)C1)C2)OC12CC3CC(CC(C3)C1)C2 | inactive: -1.96% |
| CCOC(=O)c1ccc(NP(C)(=O)Oc2ccc(Cl)cc2)cc1 (centres undefined) | inactive: -1.7% |
| CN(C)C(=O)c1c([N+](=O)[O-])cc([N+](=O)[O-])cc1[N+](=O)[O-] | inactive: 2.52% |
| CP(=O)(Nc1ccc(Cl)cc1)Oc1ccc(F)cc1 (centres undefined) | inactive: 2.07% |
| CC(C)(C)c1ccc(OP(C)(=O)O)cc1 | inactive: 0.32% |
| COc1ccccc1OP(C)(=O)Nc1ccccc1Br (centres undefined) | inactive: 2.57% |
| CP(=O)(Oc1ccccc1)N1CCOC1=O (centres undefined) | inactive: -4.96% |
| CCc1ccc(OP(C)(=O)Nc2cccnc2)cc1 (centres undefined) | inactive: 2.73% |
